From patent US20230285340A1 come the findings set out here.

In the assay the target is human NEP (Homo sapiens (Human), UniProt P08473). Kind of assay: In vitro enzyme inhibition assay at human NEP (Assay 1). The assay is classed as biochemical. As to conditions: reported as ranges.

Take `O=C(O)C(=O)N[C@H](Cc1ccc(-c2ccccc2)cc1)C[C@@H](CO)C(=O)O` [Example 6A, (2S,4S)-5-Biphenyl-4-yl-2-hydroxymethyl-4-(oxalylamino)pentanoic Acid]: the pKi was no less than 9.
